The assay has as its target DNA polymerase beta (Rattus norvegicus, UniProt P06766). The experiment in a line: Inhibition of lyase activity of rat DNA polymerase beta after 30 mins.

Usually IC50 stands for the point on the concentration scale where inhibition reaches its midpoint. A high value points to a need for much substance.

`O=c1ccc2ccc(Oc3cc4ccc(O)cc4oc3=O)cc2o1` [EDGEWORIN]: the IC50 is 22.5 µM.

The values above are taken from ChEMBL document CHEMBL1148908, “Biscoumarin derivatives from Edgeworthia gardneri that inhibit the lyase activity of DNA polymerase beta” (J Nat Prod, 2004).
